Where only a bound is given, the exact number is not on record here.

Amino acid sequences for entries named in this document (tags omitted). Residues count along the entry.
UniProt P23219, 24-599: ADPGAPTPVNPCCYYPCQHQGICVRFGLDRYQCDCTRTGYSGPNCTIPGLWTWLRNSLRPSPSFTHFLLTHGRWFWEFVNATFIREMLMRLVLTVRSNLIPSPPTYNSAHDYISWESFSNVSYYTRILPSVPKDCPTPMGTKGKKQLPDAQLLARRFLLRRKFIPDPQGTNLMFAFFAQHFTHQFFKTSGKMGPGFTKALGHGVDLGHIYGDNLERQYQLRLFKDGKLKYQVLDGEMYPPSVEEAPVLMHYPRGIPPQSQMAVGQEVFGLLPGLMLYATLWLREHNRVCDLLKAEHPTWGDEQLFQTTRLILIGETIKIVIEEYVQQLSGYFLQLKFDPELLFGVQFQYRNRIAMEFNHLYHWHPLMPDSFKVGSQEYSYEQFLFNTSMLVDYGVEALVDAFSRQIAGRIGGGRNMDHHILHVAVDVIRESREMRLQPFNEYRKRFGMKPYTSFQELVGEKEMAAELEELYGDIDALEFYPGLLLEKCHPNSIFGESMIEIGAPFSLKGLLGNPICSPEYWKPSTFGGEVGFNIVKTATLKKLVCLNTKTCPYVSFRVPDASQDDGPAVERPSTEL

What is called IC50 is the midpoint of a concentration-inhibition curve. Low readings indicate greater potency in that assay, high ones weaker potency in that assay.

In the assay the target is T1, CHO [hCOX-1] (Homo sapiens, UniProt P23219).
T1 construct: expressed in transfected cells; host or cells: CHO cells, stably transfected with pCDNAIII
Put plainly: Whole cell assay for COX-1 using CHO transfected cell line (PGE2 synthesis). In kind it is cell-based. The following applies: Table III; CHO[hCOX-1] cells, 0.5 µM AA.

The compound `CC1(C)OC(=O)C(Sc2ccccc2)=C1c1ccc(S(C)(=O)=O)cc1` [Example 11, 3-Phenylthio-5,5-dimethyl-4-(4-(methylsulfonyl)phenyl)-5H-furan-2-one] gave an IC50 of over 50 µM.
